Source: ChEMBL document CHEMBL5226337, “Pyrazolopyrimidines as anticancer agents: A review on structural and target-based approaches” (Eur J Med Chem, 2021)

Sequences of proteins named here, by UniProt entry; tags and fusion partners are left off. A change or cut given only in a name is not applied to a line headed by its entry.
UniProt Q06187: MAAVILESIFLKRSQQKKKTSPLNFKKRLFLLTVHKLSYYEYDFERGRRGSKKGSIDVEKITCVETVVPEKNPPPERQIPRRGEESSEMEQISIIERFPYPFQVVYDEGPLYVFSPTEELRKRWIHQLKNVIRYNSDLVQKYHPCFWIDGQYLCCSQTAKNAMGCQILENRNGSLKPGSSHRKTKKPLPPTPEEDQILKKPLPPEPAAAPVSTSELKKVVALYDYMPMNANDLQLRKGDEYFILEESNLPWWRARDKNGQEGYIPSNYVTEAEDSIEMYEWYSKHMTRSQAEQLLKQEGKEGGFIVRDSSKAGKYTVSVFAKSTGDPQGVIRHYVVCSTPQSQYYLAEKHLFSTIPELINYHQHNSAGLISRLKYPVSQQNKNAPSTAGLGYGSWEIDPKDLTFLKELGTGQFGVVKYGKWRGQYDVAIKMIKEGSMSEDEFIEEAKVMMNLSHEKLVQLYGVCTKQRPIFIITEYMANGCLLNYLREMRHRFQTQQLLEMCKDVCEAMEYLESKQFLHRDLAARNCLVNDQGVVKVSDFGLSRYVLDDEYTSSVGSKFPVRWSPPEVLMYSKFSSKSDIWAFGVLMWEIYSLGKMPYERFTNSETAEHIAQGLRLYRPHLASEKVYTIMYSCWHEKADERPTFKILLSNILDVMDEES

Molecular target: Tyrosine-protein kinase BTK (Homo sapiens, UniProt Q06187)
Test: Inhibition of human BTK using biotin as a substrate assessed as decrease in fold change preincubated for 5 mins followed by substrate addition incubated for 30 mins in presence of ATP by fluorescence based assay
Details: time 35.0 min

fold change (FC): 5
SMILES: Nc1ncnc2c1c(-c1ccc(Oc3ccccc3)nc1)nn2C1CCCN(C(=O)CCl)C1 (stereo unspecified)
